Results on two compounds are retold here after article PMC5396026 (Chemical Research in Toxicology, 2016).

Chains of the proteins cited; added tags and fusions are not shown. Lines headed by an entry give the natural chain unless they say otherwise; changes in a name come on top.
UniProt P10275: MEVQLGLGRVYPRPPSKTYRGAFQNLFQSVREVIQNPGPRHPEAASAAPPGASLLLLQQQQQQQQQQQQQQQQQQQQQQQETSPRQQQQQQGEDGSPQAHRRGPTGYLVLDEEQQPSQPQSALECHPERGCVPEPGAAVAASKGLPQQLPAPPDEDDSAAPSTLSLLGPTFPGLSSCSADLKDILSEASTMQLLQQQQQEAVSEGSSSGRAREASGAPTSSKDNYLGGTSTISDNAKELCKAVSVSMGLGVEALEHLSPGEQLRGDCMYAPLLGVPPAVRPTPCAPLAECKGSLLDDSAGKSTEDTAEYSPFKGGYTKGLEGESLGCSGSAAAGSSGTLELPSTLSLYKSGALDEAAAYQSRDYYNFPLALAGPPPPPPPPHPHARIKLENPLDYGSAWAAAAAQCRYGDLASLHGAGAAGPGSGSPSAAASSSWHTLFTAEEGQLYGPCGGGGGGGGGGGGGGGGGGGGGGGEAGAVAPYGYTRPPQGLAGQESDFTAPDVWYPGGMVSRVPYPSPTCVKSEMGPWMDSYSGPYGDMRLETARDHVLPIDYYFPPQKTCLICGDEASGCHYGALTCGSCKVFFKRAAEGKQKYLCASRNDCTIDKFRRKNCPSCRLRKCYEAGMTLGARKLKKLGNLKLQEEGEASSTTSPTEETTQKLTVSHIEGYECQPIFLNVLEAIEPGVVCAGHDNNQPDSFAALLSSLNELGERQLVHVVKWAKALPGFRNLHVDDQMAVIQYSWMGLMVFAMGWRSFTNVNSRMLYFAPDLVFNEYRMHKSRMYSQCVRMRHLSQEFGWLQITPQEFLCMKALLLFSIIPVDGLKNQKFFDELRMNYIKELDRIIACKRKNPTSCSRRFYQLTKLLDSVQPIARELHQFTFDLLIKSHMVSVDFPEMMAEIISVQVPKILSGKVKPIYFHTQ

For this assay, the target named is AR (Homo sapiens, UniProt P10275). Conditions: AC50 at 10 nM vs 0.5 nM R1881, 95% confidence intervals.

Structures can show the parent of a compound that is named as a salt.

In the case of `CCCC1COC(Cn2cncn2)(c2ccc(Cl)cc2Cl)O1` (centres unmarked) [propiconazole], the “potency shift in antagonist confirmation assay” value was “significant shifts in the correct direction”.

Regarding `CCN(CC)CCOc1ccc(C(=C(Cl)c2ccccc2)c2ccccc2)cc1` [clomiphene citrate], the “potency shift in antagonist confirmation assay” value is on record as “shift in the correct direction but with overlapping confidence intervals”.
